Experimental data: PubChem BioAssay AID2549 (National Center for Advancing Translational Sciences (NCATS), 2010)
The entries are a selection whose mix differs from that of the whole data set. Calls of active or inactive are those of the source. The call rests on the fitted dose curve; in most records, active means well fitted inhibition curve with a large enough effect; inconclusive means small, poorly fitted or top-dose-only effect; inactive means flat fitted curve, though single readings scatter.

Protein sequences, listed by entry. Tags and fused reporters are not part of them. Lines headed by an entry give the natural chain unless they say otherwise; changes in a name come on top.
UniProt P46063: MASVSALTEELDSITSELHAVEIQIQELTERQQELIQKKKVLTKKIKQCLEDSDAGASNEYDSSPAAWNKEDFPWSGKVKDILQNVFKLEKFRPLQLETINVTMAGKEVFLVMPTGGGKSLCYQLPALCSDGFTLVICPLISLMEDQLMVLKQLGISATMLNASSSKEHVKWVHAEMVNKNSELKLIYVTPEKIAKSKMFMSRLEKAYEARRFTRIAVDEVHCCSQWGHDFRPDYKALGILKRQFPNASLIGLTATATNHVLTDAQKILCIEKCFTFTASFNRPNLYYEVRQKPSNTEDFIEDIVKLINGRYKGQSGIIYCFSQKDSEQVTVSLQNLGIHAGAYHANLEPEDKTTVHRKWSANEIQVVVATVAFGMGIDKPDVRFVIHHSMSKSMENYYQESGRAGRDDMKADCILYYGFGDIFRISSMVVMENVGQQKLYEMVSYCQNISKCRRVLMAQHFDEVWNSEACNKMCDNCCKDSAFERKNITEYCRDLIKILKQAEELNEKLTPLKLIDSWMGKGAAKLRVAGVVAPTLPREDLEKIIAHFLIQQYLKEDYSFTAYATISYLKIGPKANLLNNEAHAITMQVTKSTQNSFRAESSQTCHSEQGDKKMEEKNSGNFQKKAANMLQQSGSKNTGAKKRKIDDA

What follows are compounds tested against ATP-dependent DNA helicase Q1 (Homo sapiens) (UniProt P46063) (assay: qHTS Assay for Inhibitors of RecQ-Like Dna Helicase 1 (RECQ1)). Details: RECQ1 DNA unwinding, red fluorescence kinetic read; series mostly up to 57.3 µM; activity, negative = inhibition: at the top concentration.
Description: Survival of cells and the faithful propagation of the genome depend on elaborate mechanisms of detecting and repairing DNA damage. Treatment of advanced cancer relies on radiation therapy or chemotherapy, which kill cancer cells by causing extensive DNA damage. It is often found, that cancer cells develop resistance to therapy through enhanced activity of DNA repair functions; this has led to an increased interest in developing drugs that interfere with DNA repair, which could sensitize cancer cells to conventional therapy.
This validation qHTS assay pertains to human RECQ1, which is important in resolving abnormal DNA structures formed during replication or homologous recombination. Shutting down the expression of RECQ1 leads to chromosomal instability and higher radiation sensitivity in cultured cells.
The validation assay was a fluorescence quenching based kinetic qHTS for RECQ1 Helicase DNA unwinding. The activity was measured as ATP-dependent separation of a 20-bp DNA duplex extended by 30-nt single-stranded tails (forked duplex). The forked DNA substrate was tagged with rhodamine fluorophore (carboxytetramethyl rhodamine, TAMRA) and BHQ-2 (Black Hole Quencher 2) dark quencher. Strand separation results in an increase in the fluorescence of TAMRA (excitation 525 nm, emission 598 nm). This substrate construct operates in a red-shifted region where very few compound library members have been noted to fluoresce (PubChem AIDs 593 and 594). An additional feature of the assay is the inclusion of 2.5 ug/ml poly (dIdC), to reduce interference by compounds such as DNA intercalators, a major source of false inhibitors.
Opher Gileadi, Structural Genomics Consortium, University of Oxford
Screening Center PI: Austin, C.P.
Screening Center: NIH Chemical Genomics Center [NCGC]
Three uL of reaction buffer (25 mM Tris-HCl (pH 8.0), 5 mM NaCl, 2 mM MgCl2, 1mM DTT, 0.01% Tween- 20, and 2.5 ug/ml poly(dI-dC), including enzyme (50 nM RECQ1T1), were dispensed into a 1536-well Greiner black assay plate via solenoid-valve based nanoliter dispensers. Compounds (23 nl each in columns 5-48) and control (23 nl each in column 2 as dose-response) were transferred via a Kalypsys pintool equipped with a 1536-pin array. The plates were incubated for 15 min at room temperature, and then 1 ul of substrates (200 nM DNA and 2 mM ATP, final concentrations) was added to start the reaction. The plate was transferred into a ViewLux high-throughput CCD imager where the reaction progress was measured in a discontinuous kinetic mode (two reads spaced 2 hours apart, with intermediate room temperature incubation of the covered assay plate) by using standard red-fluorescence optics (excitation filter 525 nm, emission filter 598 nm). Enzyme-free and vehicle (DMSO) controls were included for signal normalization.
Further: nearly all actives have a fitted effect of over 30% in size.

Structure (SMILES) | activity, negative = inhibition | outcome | Potency
COc1ccc2nc(NP(=O)(c3ccccc3)c3ccccc3)sc2c1 | inactive: -18.2% |  | 
COc1cc(I)ccc1[As](=O)(O)O | inactive: -3.86% |  | 
Cc1c2c(nc3ccccc13)SC(C(Cl)Cl)C2 (stereo not drawn) | inactive: -1.47% |  | 
O=C(OC1CN2CCC1CC2)C12CC3CC(CC(C3)C1)C2 (stereo not drawn) | inactive: -12.3% |  | 
Cc1cc(=O)[nH]c(N[N+](=O)[O-])n1 | inactive: 1.51% |  | 
COc1ccc(N/C(=N/P(=O)(N2CCOCC2)N2CCOCC2)N2CCOCC2)cc1 | inactive: -3.26% |  | 
Cc1ccc(OP(=O)(Nc2ccc([N+](=O)[O-])cn2)Oc2ccc(C)cc2)cc1 |  | inactive | 
Cc1ccc2nc3c(c(C)c2c1)CC(C(Cl)Cl)S3 (stereo not drawn) | inactive: -2.51% |  | 
C[As](=O)(O)c1cccc(C(=O)O)c1 |  | inactive | 
O=[As](O)(c1ccc(O)cc1)c1ccccc1O | inactive: -5.53% |  | 
CCN(CC)C(=S)SC(NC=O)C(Cl)(Cl)Cl (stereo not drawn) | inactive: -14.3% |  | 
CC(C)NC(=O)NP(=O)(Oc1ccccc1)Oc1ccccc1 |  | inactive | 
O=[N+]([O-])c1cc([N+](=O)[O-])c(-c2ccn[nH]2)s1 | inactive: 1.17% |  | 
ClCCSc1nnc(-c2cccnc2)o1 | inactive: 2.11% |  | 
CC(C)c1ccc(OP(=O)(Nc2ccccn2)Oc2ccccc2F)cc1 (stereo not drawn) | inactive: -3.08% |  | 
Cc1cc(SC(NC(=O)c2ccccc2)C(Cl)(Cl)Cl)nc(C(C)C)n1 (stereo not drawn) | inactive: -3.12% |  | 
CCOC(=O)Nc1ccc([As](=O)(O)O)c(O)c1 |  | inactive | 
Cc1cc(SC(NC=O)C(Cl)(Cl)Cl)ncn1 (stereo not drawn) | inactive: 24.1% |  | 
O=P(Nc1ccccn1)(c1cccc2ccccc12)c1cccc2ccccc12 |  | inactive | 
CN(N=O)C(=N)N[N+](=O)[O-] | inactive: -8.05% |  | 
O=[N+]([O-])c1ccc(Nc2ccc(Oc3ccc([N+](=O)[O-])cc3[N+](=O)[O-])cc2)c([N+](=O)[O-])c1 | inactive: -1.02% |  | 
CCOC(=O)Nc1cccc([As](=O)(O)O)c1 | inactive: -9.16% |  | 
O=C(COc1ccccc1)OC1CN2CCC1CC2 (stereo not drawn) | inactive: -2.18% |  | 

Structure (SMILES) | activity, negative = inhibition | outcome | Potency
COP1(=S)c2c(C)nn(CCC#N)c2N=C(c2ccc(F)cc2)N1C (stereo not drawn) | inactive: -16% |  | 
CCC(C)N(CC(C)C)C(=S)SC(NC(C)=O)C(Cl)(Cl)Cl (stereo not drawn) | inactive: -2.63% |  | 
CCOC(=O)c1ccc(NC(=O)C(C)(CCl)SC)cc1 (stereo not drawn) | inactive: -8.19% |  | 
Clc1n[nH]nc1-c1nn[nH][15n]1 | inactive: -1.31% |  | 
CC(C)(C)C(=O)NC(Sc1ncccn1)C(Cl)(Cl)Cl (stereo not drawn) | inactive: 23.6% |  | 
O=P1(Nc2ccccn2)COc2ccccc2OC1 | inactive: -0.409% |  | 
CN(CCCl)Cc1cc(Cl)c(NC2=NCCN2)c(Cl)c1 |  |  | inactive
CCOP(=O)(Nc1ccc(C)cn1)OCC |  | inactive | 
CN(C(=O)Cc1ccc(Cl)c(Cl)c1)[C@@H]1CCCC[C@H]1N1CCCC1 |  |  | inactive
CC(C)/C=N\N=C(\N)N[N+](=O)[O-] | inactive: -1.48% |  | 
O=[As](O)(c1ccccc1Br)c1ccccc1Br | inactive: -13.8% |  | 
CN(C)C1(CNC(=O)c2ccc(S(C)(=O)=O)cc2)CCCCC1 |  | inactive | 
O=C(/C=C/c1ccccc1)OC1CN2CCC1CC2 (stereo not drawn) | inactive: -2.75% |  | 
Cc1nn(-c2ccccc2)c2c1P(=O)(N1CCOCC1)N(C)C(c1ccccc1)=N2 (stereo not drawn) | inactive: -2.45% |  | 
CC1CCC(C(C)C)C(OP(=O)(Nc2ccccn2)c2ccccc2)C1 (stereo not drawn) | inactive: -9.25% |  | 
Nc1cccc([As](=O)(O)c2ccccc2)c1 | inactive: -0.551% |  | 
O=P1(Nc2ccc(Br)cn2)COc2ccccc2OC1 | inactive: -1.94% |  | 
Cc1ccc(OCC(=O)OC2CN3CCC2CC3)cc1 (stereo not drawn) | inactive: -2.21% |  | 
O=[As](O)(c1cccs1)c1cccs1 | inactive: -7.14% |  | 
O=P1(Nc2ncccn2)COc2ccccc2OC1 |  | inactive | 
O=C(O)COc1ccc([As](=O)(O)O)cc1[N+](=O)[O-] |  | inactive | 
Nc1ccccc1[As](=O)(O)c1ccccc1 | inactive: -3.81% |  | 
CCOP1(=S)c2c(C)nn(CCC#N)c2N=C(c2ccccc2F)N1C (stereo not drawn) | inactive: -11.3% |  | 

Structure (SMILES) | activity, negative = inhibition | outcome | Potency
O=P(Nc1nccs1)(c1ccccc1)c1nc2ccccc2s1 (stereo not drawn) | inactive: -2.16% |  | 
O=P(Nc1nccs1)(Oc1ccccc1)Oc1ccccc1 | inactive: 3.68% |  | 
CS(=O)(=O)c1cc([N+](=O)[O-])c2no[n+]([O-])c2c1 | inactive: -6.98% |  | 
CCOP1(=S)c2c(C)nn(CCC#N)c2N=C(c2ccc(F)cc2)N1C (stereo not drawn) | inactive: -3.07% |  | 
CN(C(=O)Cc1ccccc1)[C@@H]1CC[C@]2(CCCO2)C[C@H]1N1CCCC1 |  |  | inactive
O=[N+]([O-])c1ccc2c(c1)nnn2O | inactive: -11% |  | 
NC(=O)Nc1ccc([As](=O)(O)O)cc1 |  |  | inactive
O=[N+]([O-])CC(O)c1ccc([N+](=O)[O-])cc1 (stereo not drawn) |  | inactive | 
O=[As](O)(c1cccc(O)c1)c1cccc(O)c1 | inactive: 11.9% |  | 
Cc1cccc(OCC(=O)OC2CN3CCC2CC3)c1 (stereo not drawn) |  | inactive | 
O=C(OC1CN2CCC1CC2)c1ccc(Cl)cc1 (stereo not drawn) | inactive: -5.51% |  | 
CN(C(=O)Cc1ccc(Cl)c(Cl)c1)[C@@H]1CC[C@]2(CCCO2)C[C@H]1N1CCCC1 |  |  | inactive
COc1cc(C(=O)NCC2(N3CCOCC3)CCCCC2)cc(Cl)c1OC(C)C | inactive: 2.69% |  | 
O=[As](O)(O)c1cccnc1 |  | inactive | 
COc1cc(C2NCCC3(OCCO3)C2(C)C)cc(OC)c1OC (stereo not drawn) |  | inactive | 
CCOP(=O)(Nc1cccc2ccccc12)OCC | inactive: -0.511% |  | 
Cc1ccc(NCCc2c([N+](=O)[O-])cc([N+](=O)[O-])cc2[N+](=O)[O-])cc1 | inactive: -16.2% |  | 
Nc1cccc2c([As](=O)(O)O)cccc12 | inactive: 5.52% |  | 
CCCOP(=S)(Nc1nc(N)cc(=O)[nH]1)OCCC |  | inactive | 
CC(C)(C)C(=O)NC(Sc1ccccc1)C(Cl)(Cl)Cl (stereo not drawn) |  | inactive | 
O=P1(Nc2nc3ccc(Cl)cc3s2)COc2ccccc2O1 (stereo not drawn) | inactive: -6.4% |  | 
CCOc1ccc(C2=NCC(CBr)S2)cc1 (stereo not drawn) |  | inactive | 
